Data as given in PubChem BioAssay (NCI).
The list shows a part of the results, in another mix than the full data. Some salts and complexes are drawn in separate pieces, as the source files them; their charges need not balance. Calls of active or inactive are those of the source. Rule as the data show it: active = growth inhibition above about 70%; inactive = the rest.

How the values were obtained:
[1] = NCI Yeast Anticancer Drug Screen. Data for the rad50 strain (AID 155);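 also: 0% = growth of vehicle-only cultures of the same strain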; settings: S. cerevisiae rad50 strain growth inhibition; at 50.0 µM; hits give high values
[2] = NCI Yeast Anticancer Drug Screen. Data for the mec2-1 strain (AID 157); settings: S. cerevisiae mec2-1 strain, at 50.0 µM, hits give high values
[3] = NCI Yeast Anticancer Drug Screen. Data for the sgs1 mgt1 strain (AID 161);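 also: 0% = growth of cultures given vehicle only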; settings: S. cerevisiae sgs1 mgt1 strain, at 50.0 µM, hits give high values
[4] = NCI Yeast Anticancer Drug Screen. Data for the cln2 rad14 strain (AID 165);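 also: 0% = growth equal to vehicle treated cultures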; settings: S. cerevisiae cln2 rad14 strain, at 50.0 µM, hits give high values
[5] = NCI Yeast Anticancer Drug Screen. Data for the bub3 strain (AID 167); settings: S. cerevisiae bub3 mutant strain, at 50.0 µM, hits give high values
[6] = NCI Yeast Anticancer Drug Screen. Data for the mlh1 rad18 strain (AID 175); settings: S. cerevisiae mlh1 rad18 strain growth inhibition; at 50.0 µM; hits give high values

Measured: growth inhibition

F[PH+](F)N(c1ccccc1)[PH+](F)F.F[PH+](F)N(c1ccccc1)[PH+](F)F.F[PH+](F)N(c1ccccc1)[PH+](F)F.[Cr]
inactive: [1] 30.9% | [2] 14.2% | [3] -5.25% | [4] 13.2% | [5] -9.8% | [6] 19.2%

COc1ccc2ccccc2n1.O=[N+]([O-])c1cc([N+](=O)[O-])c(O)c([N+](=O)[O-])c1
inactive: [1] 59.8% | [2] 10.3% | [3] 41.8% | [4] 10.2% | [5] 5.1% | [6] 38.6%

O=[N+]([O-])c1cc([N+](=O)[O-])c(C(F)(F)F)c([N+](=O)[O-])c1O
inactive: [1] -9.25% | [2] -3% | [3] 24.8% | [4] -4.25% | [5] -8.9% | [6] 9.85%

Cc1cnc(N)[nH]1.O=[N+]([O-])c1cc([N+](=O)[O-])c(O)c([N+](=O)[O-])c1
inactive: [1] -9.45% | [2] 8.45% | [3] 0.95% | [4] -10.2% | [5] -12.6% | [6] -1.6%

CP(=O)(O)O.[Zr]
inactive: [1] -18.9% | [2] -3.65% | [3] -15.9% | [4] 5.6% | [5] -5.6% | [6] 6.1%

CCCP(=O)(N(C)C)N(C)C
inactive: [1] -2% | [2] -10.1% | [3] -2.05% | [4] -11.1% | [5] -27.2% | [6] -8.85%

N1=C(c2nnc(-c3nn[nH]n3)nn2)NNN1
inactive: [1] -7.65% | [2] -31.8% | [3] -7.55% | [4] 19.8% | [5] -28.8% | [6] 12.6%

CCN(CC)CCOC(=O)C(O)(c1cccc(C)c1C)C1CCCCC1 (centres undefined)
inactive: [1] 0.8% | [2] 2.1% | [3] -28.9% | [4] -18.8% | [5] -0.25% | [6] 4.35%

COc1ccc2c3c1OC1[C@@]4(OC)CCC5(CC4C(C)=O)[C@@H](C2)N(C)CC[C@]315 (some centres undefined)
inactive: [1] 10.8% | [2] -4.5% | [3] -7.7% | [4] -15.5% | [5] 3.75% | [6] 4.35%

CCCCCCCNCCO.O=[N+]([O-])c1cc([N+](=O)[O-])c(O)c([N+](=O)[O-])c1
inactive: [1] 47.6% | [2] 13.3% | [3] 42.4% | [4] -22.1% | [5] 2.15% | [6] 33.1%

O=[N+]([O-])c1ccccc1[N+](=O)[O-]
inactive: [1] 30.1% | [2] 2.4% | [3] 15.9% | [4] 8.45% | [5] -14.3% | [6] 13%

CCN(CC)CCOC(=O)C(O)(c1ccccc1)c1cccc(C)c1 (centres undefined)
inactive: [1] -0.9% | [2] 6.65% | [3] 7.25% | [4] -11.8% | [5] -0.4% | [6] 5.55%

CCOC(=O)C1CCCN1CCCC#N.O=[N+]([O-])c1cc([N+](=O)[O-])c(O)c([N+](=O)[O-])c1
inactive: [1] 36.6% | [2] 16.9% | [3] 34.9% | [4] 21.2% | [5] 1.6% | [6] 25.4%

CCCCNCCNCCCC.O=[N+]([O-])c1cc([N+](=O)[O-])c(O)c([N+](=O)[O-])c1
inactive: [1] 6.2% | [2] 4.65% | [3] 7.4% | [4] -8.3% | [5] 4.25% | [6] 46.9%

CCOC(=O)COCN(CN(CN(COCC(=O)OCC)[N+](=O)[O-])[N+](=O)[O-])[N+](=O)[O-]
inactive: [1] -1.8% | [2] 3.25% | [3] -7% | [4] -26.4% | [5] -0.75% | [6] 20.2%

CN(N)P(=O)(Cl)C(Cl)(Cl)Cl (centres undefined)
inactive: [1] 6.7% | [2] -0.7% | [3] 4.3% | [4] -3.1% | [5] 3.35% | [6] 11.3%

[C-]#N.[PtH+].c1ccc([PH+](c2ccccc2)c2ccccc2)cc1.c1ccc([PH+](c2ccccc2)c2ccccc2)cc1
inactive: [1] -0.65% | [2] 4.1% | [3] -16.8% | [4] -7.8% | [5] -3% | [6] -25.6%

Cc1cccc(C2CCCN2C)c1.O=[N+]([O-])c1cc([N+](=O)[O-])c(O)c([N+](=O)[O-])c1
inactive: [1] 13.8% | [2] 6.7% | [3] 5.75% | [4] -3.3% | [5] -3.55% | [6] 13.4%

CN(C)CCCl
inactive: [1] 18.9% | [2] -4% | [3] 18.1% | [4] -1.5% | [5] -10.3% | [6] 24.4%

CCC1C(=O)CCCCN1C.O=[N+]([O-])c1cc([N+](=O)[O-])c(O)c([N+](=O)[O-])c1
inactive: [1] 41.1% | [2] 14.9% | [3] 40.2% | [4] 24.7% | [5] 4.3% | [6] 38%

C1CN1P1(N2CC2)=NP(N2CC2)(N2CC2)=NP(N2CC2)(N2CC2)=N1.O=[N+]([O-])c1cc([N+](=O)[O-])c(O)c([N+](=O)[O-])c1
inactive: [1] -10.1% | [2] 15.4% | [3] -4.25% | [4] 46.2% | [5] 12.6% | [6] -9.4%

O.[C-]#N.[C-]#N.[C-]#N.[C-]#N.[C-]#N.[Fe+5]
inactive: [1] 2.85% | [2] -2.35% | [3] 15.1% | [4] -1.25% | [5] -1.6% | [6] -7.9%

CC(C)CC(C)NCCO.O=[N+]([O-])c1cc([N+](=O)[O-])c(O)c([N+](=O)[O-])c1
inactive: [1] 4.65% | [2] 11.9% | [3] 0.6% | [4] -22.1% | [5] -9.75% | [6] -2.85%

CCC1C(=O)CCN1C.O=[N+]([O-])c1cc([N+](=O)[O-])c(O)c([N+](=O)[O-])c1
inactive: [1] -2.8% | [2] 3.65% | [3] 24.3% | [4] -2.7% | [5] 11.6% | [6] -7.2%

Clc1ccc(-c2ncco2)cc1.O=[N+]([O-])c1cc([N+](=O)[O-])c(O)c([N+](=O)[O-])c1
inactive: [1] 12.7% | [2] 2.6% | [3] 36.2% | [4] 28.8% | [5] -5.4% | [6] 34.7%

CC(O)CN.O=[N+]([O-])c1cc([N+](=O)[O-])c(O)c([N+](=O)[O-])c1
inactive: [1] 8.05% | [2] 5.05% | [3] -4.65% | [4] -28.6% | [5] -3.85% | [6] -9.4%

CC(C)OP(C)(=O)O.[Y]
inactive: [1] 0.6% | [2] -5.65% | [3] -1% | [4] -12.1% | [5] 8.3% | [6] -0.65%

CN(C)OCc1ccccc1.O=[N+]([O-])c1cc([N+](=O)[O-])c(O)c([N+](=O)[O-])c1
inactive: [1] -3.75% | [2] 0.9% | [3] 8.3% | [4] -8% | [5] -2.25% | [6] 1.6%

Cc1ccc2c(ccc3ccc4ccccc4c32)c1.O=C1c2cc([N+](=O)[O-])ccc2-c2c1cc([N+](=O)[O-])cc2[N+](=O)[O-]
inactive: [1] -0.5% | [2] 7.4% | [3] 22.9% | [4] -8.25% | [5] 7.35% | [6] 31.3%

O=P(Cl)(CCl)NC12CC3CC(CC(C3)C1)C2 (centres undefined)
inactive: [1] -4.85% | [2] -3% | [3] -4.25% | [4] -1.65% | [5] -2.65% | [6] 16.7%

CCC(C)OC(=O)N(CCCl)CCCl (centres undefined)
inactive: [1] 12.2% | [2] 12.4% | [3] 0.8% | [4] 15.1% | [5] 8.6% | [6] 7.65%

O=[N+]([O-])c1cc([N+](=O)[O-])c(O)c([N+](=O)[O-])c1.OCCNC1CCCCC1
inactive: [1] -1.9% | [2] 9.45% | [3] 0.65% | [4] -36% | [5] -13.3% | [6] 4.45%

[N-]=[N+]=N.[N-]=[N+]=N.[Pt+2].c1ccc([PH+](c2ccccc2)c2ccccc2)cc1.c1ccc([PH+](c2ccccc2)c2ccccc2)cc1
inactive: [1] 28.7% | [2] 15.4% | [3] 16.5% | [4] -48.7% | [5] 11.2% | [6] 32.2%

Cc1cccc2c1ccc1cc3ccccc3cc12.O=C1c2cc([N+](=O)[O-])ccc2-c2c1cc([N+](=O)[O-])cc2[N+](=O)[O-]
inactive: [1] 23.4% | [2] -1.35% | [3] 13.2% | [4] -4.75% | [5] 8.5% | [6] 17.4%
